# Apparent affinities of Ab-14 variants for a coronavirus HR2 peptide

Data: MIT Lincoln Laboratory AlphaSeq set, Li et al. 2023, doi:10.1038/s41467-023-39022-2, as distributed in FLAb.

Antigen: PDVDLGDISGINAS, a 14-residue peptide of the SARS-CoV-2 spike HR2 region.

The variants keep the heavy chain, the linker and the frameworks of Ab-14 (scFv order VH, three GGGGS repeats, VL).
VH: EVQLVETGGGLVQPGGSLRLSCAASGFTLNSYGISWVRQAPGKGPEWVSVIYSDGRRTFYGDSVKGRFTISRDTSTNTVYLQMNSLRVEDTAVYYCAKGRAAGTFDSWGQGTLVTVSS
VL: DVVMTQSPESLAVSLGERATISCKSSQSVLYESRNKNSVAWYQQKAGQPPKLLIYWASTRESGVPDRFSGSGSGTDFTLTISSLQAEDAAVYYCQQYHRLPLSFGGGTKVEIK

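The starting antibody came from a phage panning campaign against this peptide. This is the validation round: designs drawn from the data on random variants, tested in the same kind of assay. Group labels follow the data file (Ctrl: baseline library sampled from a position-specific scoring matrix, with some repeated check sequences; En: ensemble of fine-tuned language models; GP: Gaussian process model; GPLM: also part of the Gaussian process libraries; HC: hill climbing; Gen: genetic algorithm; Gibbs: Gibbs sampling; a sequence that several methods proposed may carry one label only). Affinity was read by AlphaSeq, a pooled yeast mating assay with surface-displayed partners. After mating in shaken culture at 30 °C for 16 h, diploids were selected and their barcode pairs sequenced. Each replicate has its own calibration line, from reference interactions of the BCL2 family. Mating was done six times.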

Each variant is given by its three light chain CDRs, as the data file delimits them; those of the parent are KSSQSVLYESRNKNSVA, WASTRES, QQYHRLPLS. Each Kd is an estimate from the mating assay, the geometric mean of the replicates in which the pair was seen; lower is stronger. "nd" means that the variant was in the library but no mating with the target was seen in any replicate; the authors take this as a sign of poor binding, and no number exists. A sequence measured in both rounds can read differently, since the two assays cover different ranges.

13 nM (6 of 6 replicates; controls 1 of 18): IISQVDDYLSRNTNSIA | DQSTRGS | QQYDRLPLS [En_HC].
2.4 nM (6 of 6 replicates; controls 1 of 18): KSLQSVLYESRNKNSVA | HASTRED | QDYHRLPLS [GP_HC].
52 nM (6 of 6 replicates; controls 0 of 18): TIGQTLMQGIRNRSNVA | EVSQRLN | QQYDRLPLL [En_Gen].
10 nM (6 of 6 replicates; controls 0 of 18): MLSQMTGLGMKASNSVA | QASMRFN | QQYHRLPLM [En_Gen].
890 pM (6 of 6 replicates; controls 0 of 18): KSSISYGYESTNKNSVA | AASTRES | QQYHRLPLS [GP_HC].
510 pM (6 of 6 replicates; controls 1 of 18): KLSGSFLYESRNKNSVA | GASTRES | QQYHRLPLS [GP_Gen].
480 pM (6 of 6 replicates; controls 1 of 18): KSSGSWLYESRNKNSVA | GASLRES | QQYHRLPLS [GP_HC].
nd (0 of 6 replicates; controls 0 of 18): KQSQEVLYESRNKNSVA | WASTRES | QQYHRLPLS [Ctrl].
2.6 nM (6 of 6 replicates; controls 1 of 18): KYSQSVLYEWRNKNSVA | DASTRES | QQYHRLPLS [GP_HC].
4.3 nM (6 of 6 replicates; controls 1 of 18): KVSQSGLPESRNKNSVA | GISTRES | QQYHRLPLS [Ctrl].
280 nM (3 of 6 replicates; controls 0 of 18): HITYGMMVHGRHSSSIA | QAETRAK | QQYDRLPLS [En_Gen].
nd (0 of 6 replicates; controls 0 of 18): KSSQDVLYESRNKNSVA | WASTREA | QQYHRLPLD [Ctrl].
3.2 nM (5 of 6 replicates; controls 0 of 18): KVDQDDLYENRNKNSVA | QGSTRES | QQYHRLPLH [GP_Gibbs].
15 nM (6 of 6 replicates; controls 2 of 18): KILQSVLYESRNKNSVA | HASTRED | QLYHRLPLS [GP_HC].
5.3 nM (6 of 6 replicates; controls 0 of 18): KSDQSVLYESTHKNSVA | GASTRES | QQYHRLVLS [Ctrl].
3.8 nM (6 of 6 replicates; controls 2 of 18): KLQQSVGYESRNQNAVA | EASTREE | QQYHRLPLS [GP_Gibbs].
nd (0 of 6 replicates; controls 0 of 18): KSSQSVLYESRNKNEVA | WAYTRES | QQYHRLPLS [Ctrl].
1.0 nM (6 of 6 replicates; controls 2 of 18): ILSQSWLYESRNKNSVA | NASTRES | QQYHRLPLS [GP_Gen].
480 pM (6 of 6 replicates; controls 2 of 18): KLSQSVLYEERNKNSVA | GASTRLS | QQYHRLPLS [GP_Gen].
1.4 nM (6 of 6 replicates; controls 1 of 18): KLYSITGTEKVHGNNVA | EMETREE | QQYNRLPLS [En_Gen].
750 pM (6 of 6 replicates; controls 0 of 18): KLSQSELYESRNKNSVA | QASTRLS | QQYHRLPLS [GP_Gen].
460 pM (6 of 6 replicates; controls 0 of 18): HLSQSWLYESRNKNSVA | NASQRES | QQYHRLPLS [GP_Gen].
500 pM (6 of 6 replicates; controls 0 of 18): KVSQSVPYEQRNKNSVA | NASTRES | QQYHRLPLS [GP_Gen].
280 pM (6 of 6 replicates; controls 1 of 18): HSSPSQLYESRNKNNVA | NASTRES | QQYHRLPLS [GP_HC].
8.9 nM (6 of 6 replicates; controls 1 of 18): KLGSMVMLEYGNKNSIA | QQSTREE | QQYDRLPLS [En_HC].
1.2 nM (6 of 6 replicates; controls 0 of 18): KASQSFLYESRNVNSVA | GASTRES | QQYHRLPLS [GP_HC].
500 nM (2 of 6 replicates; controls 0 of 18): KSSQSVLYESRNKNSVA | WASSRES | QQYHRLPLS [Ctrl].
1.5 nM (6 of 6 replicates; controls 1 of 18): KLSMITGHLQQSKNNVA | EMVTREN | QQYERLPLS [En_Gen].
3.2 nM (6 of 6 replicates; controls 0 of 18): MSSQSVYDESSNKNSVA | WASVRES | QQYHRLPLS [Ctrl].
3.3 nM (6 of 6 replicates; controls 0 of 18): KLQWYNTEASYSAFNIA | DGAQRLN | QQYMRLPLM [En_Gibbs].
53 nM (6 of 6 replicates; controls 0 of 18): KLRQVTGYESYLKNSVA | QTSTRAS | QDYNRLPLS [En_HC].
1.4 nM (6 of 6 replicates; controls 2 of 18): RFPEHLLMLESKIYNIA | NATKTME | QQYFRLPFV [En_Gibbs].
550 pM (6 of 6 replicates; controls 4 of 18): KVSQSVDYESRNKNSVA | NASTRES | QQYHRLPLS [GP_Gen].
nd (0 of 6 replicates; controls 0 of 18): KSSWSVLYESRNKNSVA | DASTRES | QQYHRLPLS [GP_HC].
5.3 nM (6 of 6 replicates; controls 1 of 18): KISQMQRVGSTHQNSIA | EEQTRAK | QQYHRLPLS [En_Gen].
990 pM (6 of 6 replicates; controls 0 of 18): KLQQSVLYESRMKNSVA | NASQRES | QQYHRLPLS [GP_Gen].
1.7 nM (6 of 6 replicates; controls 2 of 18): HISTMMRYESSLKNAIA | NAQTRES | QQYHRLPLS [En_HC].
3.0 nM (6 of 6 replicates; controls 2 of 18): HISPSFMVESRLKNSVA | QTETRVQ | QQYDRLPLS [En_HC].
240 nM (2 of 6 replicates; controls 0 of 18): KSSQSVLYESQNKNSVA | QAHTRES | QQYHRLPLS [Ctrl].
3.7 nM (6 of 6 replicates; controls 2 of 18): KLSQSVLYESRNKNSVA | NASTRME | QQYHRLPLS [GP_Gen].
460 pM (6 of 6 replicates; controls 4 of 18): KLQQSYEYESRNKNSVA | NASTRES | QQYHRLPLS [GP_Gen].
5.5 nM (6 of 6 replicates; controls 0 of 18): HISMITLQGMRARNSVA | QMTTREN | QQYDRLPLS [En_Gen].
nd (0 of 6 replicates; controls 0 of 18): KSSQSVLYESRNKNSVA | WASTRES | QQQHRLPLS [Ctrl].
5.6 nM (6 of 6 replicates; controls 0 of 18): KLEEEADVITEIGNSVA | EMSMVMD | QQYHRLPLA [En_Gibbs].
480 pM (6 of 6 replicates; controls 1 of 18): KVSMLGLYGQRNKNSVA | EASTRES | QQYHRLPLS [GP_Gibbs].
4.8 nM (6 of 6 replicates; controls 0 of 18): KLSQSVEYESRDKNSVA | MAQTRLS | QQYHRLPLS [GP_Gibbs].
400 pM (6 of 6 replicates; controls 0 of 18): KSGQGVLYESRNKDSVA | GASTRES | QQYHRLPLS [GPLM_HC].
140 nM (5 of 6 replicates; controls 0 of 18): KSSQSVQYESRDKNNVA | WASTRES | QQYARLPLS [Ctrl].
2.8 nM (6 of 6 replicates; controls 2 of 18): KSSQGVDYESRNKNSVA | GASTRES | QQYHRLPLS [GP_HC].
1.2 nM (6 of 6 replicates; controls 0 of 18): KSSQSPLYESRNKNSVA | QASTRES | QQYHRLPLS [Ctrl].
1.4 nM (6 of 6 replicates; controls 1 of 18): KLSMSDLYESRNGNSVA | EASTREK | QQYHRLPLS [GP_Gibbs].

5 of these entries, quoted again:

CDR-L1,CDR-L2,CDR-L3,group,Kd (apparent),replicates with signal,signal with controls
KSSQSVLYESRNKNEVA,WAYTRES,QQYHRLPLS,Ctrl,nd,0 of 6,0 of 18
KLSQSVLYESRNKNSVA,NASTRME,QQYHRLPLS,GP_Gen,3.7 nM,6 of 6,2 of 18
KLRQVTGYESYLKNSVA,QTSTRAS,QDYNRLPLS,En_HC,53 nM,6 of 6,0 of 18
KSSQSVLYESRNKNSVA,WASTRES,QQQHRLPLS,Ctrl,nd,0 of 6,0 of 18
KLSQSVEYESRDKNSVA,MAQTRLS,QQYHRLPLS,GP_Gibbs,4.8 nM,6 of 6,0 of 18

The parent sequence was in this pool as ten entries: three were never detected, three once, and four in most replicates, with averages from 2.2 nM to 240 nM. The authors averaged sequences with at least three values out of six and counted those with two or fewer as poor binders. Nonspecific signal, from three strains lacking the peptide, appeared in 4% of pairings of all light chain designs, centred on 430 nM (5% of these signals below 38 nM); values are not corrected for it. The control count says in how many pairings with the empty strains this scFv gave a signal.